Patent US8609644B2, “Amino derivatives of androstanes and androstenes as medicaments for cardiovascular disorders” (priority 2006, dated 2013)

target: Na+, K+-ATPase (Canis lupus familiaris, UniProt P50997); settings: read-out: Na+, K+-ATPase Inhibition IC50; dog kidney enzyme

Compared with `CNCCON=C1CC[C@]2(C)[C@H]3CC[C@]4(C)C(=O)CC[C@H]4[C@@H]3C/C(=N\O)[C@@]2(O)C1`, `CNCCCON=C1CC[C@]2(C)[C@H]3CC[C@]4(C)C(=O)CC[C@H]4[C@@H]3C/C(=N\O)[C@@]2(O)C1` (mixture of isomers) [I-cr, (E,Z) 3-(3-N-Methylaminopropoxyimino)-5α-hydroxy-6-(E)-hydroxyiminoandrostan-17-one hydrochloride] is 3-fold lower in IC50: 1300 nM for the first, 430 nM for the second. The second is the more potent here.

Compared with `CC(C)(N)CON=C1CC[C@@]2(C)[C@H](C1)/C(=N/O)C[C@@H]1[C@@H]2CC[C@]2(C)C(=O)CC[C@@H]12`, `CC12CCC3C(CC(=NO)C4CC(=NOCCN)CCC43C)C1CCC2=O` (stereo not shown) is 1000-fold lower in IC50: 25000 nM for the first, 24 nM for the second.

Going from `C[C@]12CC[C@H](OC(=O)CCCN)CC1/C(=N/O)C[C@@H]1[C@@H]2CC[C@]2(C)C(=O)CC[C@@H]12` (stereo partly shown) to `C[C@]12CC[C@H](OC(=O)CCN)CC1/C(=N/O)C[C@@H]1[C@@H]2CC[C@]2(C)C(=O)CC[C@@H]12.Cl` (stereo partly drawn) [I-dm, 3β-(3-Aminopropionyloxy)-6-(E)-hydroxyiminoandrostan-17-one hydrochloride], the IC50 falls from 6000 nM to 470 nM (13-fold). The second is the more potent here.

Going from `CC12CCC3C(CC(=NO)C4CC(C=CCCCN)CCC43C)C1CCC2=O` (stereo not shown) to `CC12CCC3C(CC(=NO)C4CC(C=CCCN)CCC43C)C1CCC2=O` (stereo not shown), the IC50 falls from 1100 nM to 250 nM (4.4-fold).

`C[C@]12CC[C@H](NC(=O)CCCN)CC1/C(=N/O)C[C@@H]1[C@@H]2CC[C@]2(C)C(=O)CC[C@@H]12` (stereo partly shown) and `C[C@]12CC[C@H](NC(=O)CCN)CC1/C(=N/O)C[C@@H]1[C@@H]2CC[C@]2(C)C(=O)CC[C@@H]12` (stereo partly shown) are within 1.5-fold of each other in IC50: 85000 nM for the first, 70000 nM for the second.

First: CNCCCOC1CCC2(C)C(C1)C(=NO)CC1C3CCC(=O)C3(C)CCC12 (stereo not shown)
Second: CNCCCSC1CCC2(C)C(C1)C(=NO)CC1C3CCC(=O)C3(C)CCC12 (stereo not shown)
The IC50 of the first is 1.5-fold lower: 1100 nM for the first, 1700 nM for the second.

First: C[C@]12CC[C@H](OC(=O)CN)CC1/C(=N/O)C[C@@H]1[C@@H]2CC[C@]2(C)C(=O)CC[C@@H]12 (stereo partly shown)
Second: CC(N)CC(=O)O[C@H]1CC[C@@]2(C)C(C1)/C(=N/O)C[C@@H]1[C@@H]2CC[C@]2(C)C(=O)CC[C@@H]12 (stereo partly shown)
The IC50 of the first is 95-fold higher: 90000 nM for the first, 950 nM for the second. The second is the more potent here.

Compared with `CC12CCC3C(C(O)C(=NO)C4CC(=NOCCN)CCC43C)C1CCC2=O` (stereo not shown), `CC1C(=NO)C2CC(=NOCCN)CCC2(C)C2CCC3(C)C(=O)CCC3C12` (stereo not shown) is 3.4-fold lower in IC50: 2100 nM for the first, 620 nM for the second.

Going from `CC12CCC3C(C(=NO)CC4CC(=NOCCN)CCC43C)C1CCC2=O` (mixture of isomers) [I-bs, (E,Z)-3-(2-Aminoethoxyimino)-7-(E)-hydroxyiminoandrostane-17-one fumarate] to `CNCCCON=C1CCC2(C)C(C1)CC(=NO)C1C3CCC(=O)C3(C)CCC12` (stereo not shown), the IC50 rises from 130 nM to 610 nM (4.7-fold). The first is the more potent here.

Compared with `CC(CN)C(=O)O[C@H]1CC[C@@]2(C)C(C1)/C(=N/O)C[C@@H]1[C@@H]2CC[C@]2(C)C(=O)CC[C@@H]12` (stereo partly shown), `C[C@]12CC[C@H](OC(=O)NCCN)CC1/C(=N/O)C[C@@H]1[C@@H]2CC[C@]2(C)C(=O)CC[C@@H]12` (stereo partly shown) is 5.6-fold higher in IC50: 1100 nM for the first, 6200 nM for the second. The first is the more potent here.

Going from `C[C@]12CCC(=NO[C@H]3CC[C@@H](N)CC3)C[C@@H]1/C(=N/O)C[C@@H]1[C@@H]2CC[C@]2(C)C(=O)CC[C@@H]12` to `CNCCCON=C1CCC2(C)C(C1)C(=NO)CC1C3CCC(=O)C3(C)CCC12` (stereo not shown), the IC50 falls from 85000 nM to 200 nM (420-fold).

Compared with `C[C@]12CC[C@H](SCCCN)CC1/C(=N/O)C[C@@H]1[C@@H]2CC[C@]2(C)C(=O)CC[C@@H]12` (stereo partly shown), `C[C@]12CC[C@@H](SCCN)CC1/C(=N/O)C[C@@H]1[C@@H]2CC[C@]2(C)C(=O)CC[C@@H]12` (stereo partly shown) is 27-fold higher in IC50: 1500 nM for the first, 40000 nM for the second. The first is the more potent here.

`C[C@]12CC[C@H](SCCN)CC1/C(=N/O)C[C@@H]1[C@@H]2CC[C@]2(C)C(=O)CC[C@@H]12` (stereo partly shown) showed an IC50 of 20000 nM.

Counter-ions that a name gives are not always drawn.
